Results: article PMC4097020 (Psychopharmacology, 2014)

By UniProt entry, the sequences of proteins in these tests, tags left out.
UniProt P35462, whole entry: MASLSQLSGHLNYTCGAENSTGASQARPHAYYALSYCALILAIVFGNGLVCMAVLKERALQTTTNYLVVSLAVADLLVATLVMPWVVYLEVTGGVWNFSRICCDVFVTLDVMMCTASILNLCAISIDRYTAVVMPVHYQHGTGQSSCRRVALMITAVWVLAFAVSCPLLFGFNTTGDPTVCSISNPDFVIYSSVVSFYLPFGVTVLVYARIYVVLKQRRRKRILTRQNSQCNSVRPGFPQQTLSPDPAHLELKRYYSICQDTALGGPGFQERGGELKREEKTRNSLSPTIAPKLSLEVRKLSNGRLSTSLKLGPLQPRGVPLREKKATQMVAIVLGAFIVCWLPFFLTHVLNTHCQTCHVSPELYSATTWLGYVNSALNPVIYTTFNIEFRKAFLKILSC

Biological target: recombinant human D3 receptor (Homo sapiens, UniProt P35462)
Assay: [3H]YM 09151-2 binding to CHOp-D3 cells

In the case of `CN1CCc2cc(Cl)c(O)cc2C(c2ccccc2)C1` (stereo not shown) [SCH23390, 7-chloro-3-methyl-1-phenyl-1,2,4,5-tetrahydro-3-benzazepin-8-ol], the Ki is reported as 1.92 ± 0.58 µM.
